Test results as given in patent publication US20040171566A1, “Antisense modulation of p38 mitogen activated protein kinase expression” (priority 1999, published 2004).

Key:
human p38β mRNA = assay: Human p38β mRNA expression in T-24 cells; settings: control oligonucleotide, no dose given
human p38α mRNA = assay: Human p38α mRNA expression in T-24 cells; settings: control oligonucleotide, dose not given

| Sequence | % p38β mRNA Expression (human p38β mRNA) | % p38α mRNA Expression (human p38α mRNA) |
| --- | --- | --- |
| GTTCGATCGGCTCGTGTCGA | 100% |  |
| TTATCCTAGCTTAGACCTAT |  | 94% |
